From PMC8474115 (Journal of Medicinal Chemistry, 2021)
Structures can show the parent of a compound that is named as a salt. Where two headings read alike, the source gives them in different places.

Sequences of proteins named here, by UniProt entry; tags and fusion partners are left off. Residues count along the entry.
UniProt O70212, 20-490: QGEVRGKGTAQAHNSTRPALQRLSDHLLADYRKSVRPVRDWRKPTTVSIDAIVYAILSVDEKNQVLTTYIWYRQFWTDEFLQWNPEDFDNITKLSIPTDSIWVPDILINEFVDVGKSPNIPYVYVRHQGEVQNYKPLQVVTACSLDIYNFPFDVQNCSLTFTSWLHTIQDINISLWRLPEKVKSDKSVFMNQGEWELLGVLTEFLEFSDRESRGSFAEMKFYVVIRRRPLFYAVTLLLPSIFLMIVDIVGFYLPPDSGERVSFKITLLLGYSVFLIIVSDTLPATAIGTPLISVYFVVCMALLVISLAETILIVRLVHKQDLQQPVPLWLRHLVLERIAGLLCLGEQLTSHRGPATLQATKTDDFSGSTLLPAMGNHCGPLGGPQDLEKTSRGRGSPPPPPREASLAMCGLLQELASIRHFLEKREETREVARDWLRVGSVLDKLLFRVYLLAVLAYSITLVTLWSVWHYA
UniProt P50406, whole entry: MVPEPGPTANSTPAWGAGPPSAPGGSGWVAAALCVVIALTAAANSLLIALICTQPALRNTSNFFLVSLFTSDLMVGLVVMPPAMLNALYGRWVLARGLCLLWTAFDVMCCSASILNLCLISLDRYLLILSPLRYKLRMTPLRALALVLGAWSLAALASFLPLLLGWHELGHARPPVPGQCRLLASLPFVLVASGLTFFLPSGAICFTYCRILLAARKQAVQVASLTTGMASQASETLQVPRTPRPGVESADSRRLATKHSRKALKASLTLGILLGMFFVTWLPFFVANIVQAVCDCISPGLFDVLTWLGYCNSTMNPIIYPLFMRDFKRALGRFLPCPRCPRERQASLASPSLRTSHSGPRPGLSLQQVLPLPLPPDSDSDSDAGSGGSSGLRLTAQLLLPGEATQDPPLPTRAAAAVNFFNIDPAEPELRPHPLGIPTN
UniProt P34969, whole entry: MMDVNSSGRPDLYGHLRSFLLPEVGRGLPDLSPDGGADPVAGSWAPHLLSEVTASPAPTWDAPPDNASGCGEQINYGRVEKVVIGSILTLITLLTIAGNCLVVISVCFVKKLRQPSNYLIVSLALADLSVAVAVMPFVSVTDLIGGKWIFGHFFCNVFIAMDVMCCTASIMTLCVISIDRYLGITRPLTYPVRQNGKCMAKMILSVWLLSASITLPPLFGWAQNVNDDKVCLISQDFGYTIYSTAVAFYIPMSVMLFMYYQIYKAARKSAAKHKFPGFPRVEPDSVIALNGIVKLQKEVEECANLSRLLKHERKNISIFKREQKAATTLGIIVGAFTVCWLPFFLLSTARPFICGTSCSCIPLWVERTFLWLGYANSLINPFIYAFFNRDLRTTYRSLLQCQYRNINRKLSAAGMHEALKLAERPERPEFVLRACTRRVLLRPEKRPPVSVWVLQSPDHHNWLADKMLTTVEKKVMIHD
UniProt P34969, 1-432 limits assumed: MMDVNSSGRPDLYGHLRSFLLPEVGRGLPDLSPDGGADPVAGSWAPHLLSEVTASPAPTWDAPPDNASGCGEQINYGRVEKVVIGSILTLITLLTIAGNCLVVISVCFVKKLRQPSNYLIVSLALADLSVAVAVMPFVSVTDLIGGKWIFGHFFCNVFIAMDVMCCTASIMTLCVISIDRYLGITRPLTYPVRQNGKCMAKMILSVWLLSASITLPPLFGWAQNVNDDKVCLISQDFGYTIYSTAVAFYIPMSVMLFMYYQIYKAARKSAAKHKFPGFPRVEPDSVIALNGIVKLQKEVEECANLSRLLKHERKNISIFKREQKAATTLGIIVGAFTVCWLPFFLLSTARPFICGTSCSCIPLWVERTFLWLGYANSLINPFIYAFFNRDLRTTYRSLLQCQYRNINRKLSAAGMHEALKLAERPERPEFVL
UniProt P28223, whole entry, looked up: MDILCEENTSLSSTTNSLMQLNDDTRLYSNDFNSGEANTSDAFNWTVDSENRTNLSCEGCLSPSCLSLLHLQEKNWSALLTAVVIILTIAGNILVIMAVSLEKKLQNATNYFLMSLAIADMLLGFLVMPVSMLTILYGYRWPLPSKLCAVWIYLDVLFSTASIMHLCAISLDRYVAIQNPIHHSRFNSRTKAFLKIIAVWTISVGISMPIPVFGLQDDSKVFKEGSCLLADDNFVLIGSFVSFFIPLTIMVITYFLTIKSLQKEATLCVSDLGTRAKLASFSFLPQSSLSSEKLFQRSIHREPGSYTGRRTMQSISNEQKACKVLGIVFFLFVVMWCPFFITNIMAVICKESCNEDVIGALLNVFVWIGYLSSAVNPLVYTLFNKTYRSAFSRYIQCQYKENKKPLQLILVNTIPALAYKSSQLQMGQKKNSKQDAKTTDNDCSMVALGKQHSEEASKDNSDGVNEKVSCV

Key:
[1] = tested on: male Sprague–Dawley rats; conditions: AUC −25 to 0 min before PCP
[2] = tested on: male Sprague–Dawley rats
[3] = target: 5-HT3R (Cavia porcellus, UniProt O70212); conditions: 100 nM; percent of maximal contraction of guinea pig ileum induced by control agonist (5-HT)
[4] = target: h5-HT6R (Homo sapiens, UniProt P50406); experiment: Inhibition of 5-CT-induced cAMP production in 1321N1 cells expressing h5-HT6R; assay type: cell-based; set-up: host or cells: 1321N1; conditions: 10^–6 M, percent inhibition of control agonist response
[5] = tested on: Potassium Channel [K ATP]; conditions: 10 μM
[6] = target: T1, Serotonin 5-HT7 (Homo sapiens, UniProt P34969); experiment: Eurofins SafetyScreen panel; assay type: binding
T1 construct: Eurofins (contract assay) 272320

[7] = tested on: Nicotinic Acetylcholine; conditions: 10 μM
[8] = tested on: Protein Set/Thr Kinase; conditions: 10 μM
[9] = tested on: Sodium Channel, Site 2
[10] = tested on: Na+/K+ ATPase; conditions: 10 μM
[11] = tested on: Adenosine Transporter; conditions: 10 μM
[12] = pH 1.2 and 8.0
[13] = target: h5-HT2AR (Homo sapiens, UniProt P28223); conditions: 5-HT2AR
[14] = tested on: PDE4; conditions: 10 μM
[15] = tested on: GABAA Chloride channel, TBOB; conditions: 10 μM
[16] = tested on: GABAA Flunitrazepam, Central; conditions: 10 μM
[17] = tested on: Glutamate Kainate; conditions: 10 μM
[18] = tested on: Glutamate NMDA, Agonism; conditions: 10 μM
[19] = tested on: Glutamate NMDA, Polyamine; conditions: 10 μM
[20] = tested on: PDE3; conditions: 10 μM
[21] = tested on: GABAA Ro-15-1788, Hippocampus; conditions: 10 μM
[22] = target: h5-HT7b (Homo sapiens, UniProt P34969); conditions: 5-HT7R
[23] = tested on: Glycine, Strychnine-sensitive; conditions: 10 μM
[24] = tested on: Glutamate NMDA, Phencyclidine; conditions: 10 μM
[25] = in vivo; conditions: male, Lister Hooded, rat, po, 3 mg/kg
[26] = tested on: Glutamate AMPA; conditions: 10 μM
[27] = tested on: Salmonella Typhimurium tester strains TA98, TA100, TA1535, and TA1537
[28] = tested on: NG108-15 cells transfected with GFP-tagged 5-HT6R; conditions: 1 μM, 24 h
[29] = target: T2, 5-HT6R (Homo sapiens, UniProt P50406); experiment: 5-HT6R constitutive activity at Gs signaling (cAMP BRET sensor CAMYEL, NG108-15 cells); assay type: cell-based; conditions: agonist-independent Gs signaling
T2 construct: expressed in transfected cells; host or cells: NG108-15

## O=S(=O)(c1cccc(Cl)c1)n1ccc2c(N[C@H]3CCNC3)nc3ccccc3c21 [CPPQ, (S)-1-[(3-chlorophenyl)sulfonyl]-4-(pyrrolidine-3-yl-amino)-1H-pyrrolo[3,2-c]quinolone]
[1]; CPPQ 3 mg/kg IP
  effect on spontaneous activity: sedative-like action
[2]; CPPQ alone IP (0.3, 1 mg/kg), AUC 0–120 min post-PCP
  effect on PCP-induced hyperactivity: did not increase activity

## CN1CCN(c2nc3ccccc3c3[nH]ccc23)CC1 [Compound 5d, 4-(4-Methylpiperazin-1-yl)-1H-pyrrolo[3,2-c]quinoline]
[3]
  agonist effect: 100 (100 nM) %

## O=S(=O)(c1ccccc1)n1ccc2c(N[C@H]3CCNC3)nc3ccccc3c21 [Compound 8, (S)-1-(Phenylsulfonyl)-N-(pyrrolidin-3-yl)-1H-pyrrolo[3,2-c]quinolin-4-amine dihydrochloride]
[4]
  antagonist effect: 93%

## O=S(=O)(c1ccccc1)n1ccc2c(NC3CNC3)nc3ccccc3c21 [Compound 9, N-(Azetidin-3-yl)-1-(phenylsulfonyl)-1H-pyrrolo[3,2-c]quinolin-4-amine dihydrochloride]
[4]
  antagonist effect: 15%

## CNC1CCN(c2nc3ccccc3c3c2ccn3S(=O)(=O)c2ccccc2)C1 (stereo not shown) [Compound 10, N-Methyl-1-(1-(phenylsulfonyl)-1H-pyrrolo[3,2-c]quinolin-4-yl)pyrrolidin-3-amine dihydrochloride]
[4]
  antagonist effect: 78%

## O=S(=O)(c1ccccc1)n1ccc2c(N3CCCNCC3)nc3ccccc3c21 [Compound 11, 4-(1,4-Diazepan-1-yl)-1-(phenylsulfonyl)-1H-pyrrolo[3,2-c]quinoline dihydrochloride]
[4]
  antagonist effect: 41%

## O=S(=O)(c1cccc(F)c1)n1ccc2c(N3CCNCC3)nc3ccccc3c21 [FPPQ, 1-[(3-Fluorophenyl)sulfonyl]-4-(piperazin-1-yl)-1H-pyrrolo[3,2-c]quinoline dihydrochloride]
[5]
  %inh: 1%
[6]
  IC50: 5.01 µM
  Ki: 2870 nM
[7]
  %inh: -6%
[8]
  %inh: -20%
[9]
  IC50: 780 nM
  Ki: 710 nM
[9]; 10 nM, additional batch
  %inh: 9%
[9]; 0.1 μM
  %inh: 23%
[9]; 1 μM
  %inh: 47%
[9]; 10 μM
  %inh: 94%
[9]; 10 μM, additional batch
  %inh: 93%
[10]
  %inh: 1%
[11]
  %inh: 12%
[12]
  chemical stability: chemically stable
[13]
  Ki: 3 µM
[14]
  %inh: 24%
[15]
  %inh: 8%
[16]
  %inh: 8%
[17]
  %inh: -2%
[18]
  %inh: -2%
[19]
  %inh: 2%
[20]
  %inh: 10%
[21]
  %inh: -5%
[22]
  Ki: 3000 nM
[23]
  %inh: -1%
[24]
  %inh: 4%
[25]
  Tmax: 3 to 5 h
[1]; 1 and 3 mg/kg PO
  effect on spontaneous activity: no sedative effects
[2]; 1 and 3 mg/kg PO, AUC 0–60 min post-PCP (5 mg/kg SC)
  effect on PCP-induced hyperactivity: decreased PCP-induced hyperactivity
[2]; 1 and 3 mg/kg PO, AUC 65–120 min post-PCP (5 mg/kg SC)
  effect on PCP-induced hyperactivity: decreased PCP-induced hyperactivity
[26]
  %inh: 8%
[27]; Salmonella mutagenic test
  mutagenic potential: no mutagenic potential
[27]; TA-98, 0.4 μg/ml
  Number of revertants: 8 ± 4 revertants/plate
[27]; TA-98, 4 μg/ml
  Number of revertants: 10 ± 2 revertants/plate
[27]; TA-98, 8 μg/ml
  Number of revertants: 8 ± 3 revertants/plate
[27]; TA-100, 4 μg/ml
  Number of revertants: 8 ± 3 revertants/plate
[27]; TA-100, 8 μg/ml
  Number of revertants: 8 ± 3 revertants/plate
[27]; TA-1535, 4 μg/ml
  Number of revertants: 8 ± 4 revertants/plate
[27]; TA-1537, 16 μg/ml
  Number of revertants: 8 ± 2 revertants/plate

## O=S(=O)(c1ccccc1)c1cnc2c(N3CCNCC3)cccc2c1 [intepirdine]
[28]
  effect on neurite growth / neurite length: reduced NG108-15 cell neurite length
[29]
  effect on basal cAMP level: strongly decreased basal cAMP level
